Assay results reported in ChEMBL document CHEMBL4270669 (J Med Chem, 2018).

Sequences of proteins named here, by UniProt entry; tags and fusion partners are left off. A change or cut given only in a name is not applied to a line headed by its entry.
UniProt P48736: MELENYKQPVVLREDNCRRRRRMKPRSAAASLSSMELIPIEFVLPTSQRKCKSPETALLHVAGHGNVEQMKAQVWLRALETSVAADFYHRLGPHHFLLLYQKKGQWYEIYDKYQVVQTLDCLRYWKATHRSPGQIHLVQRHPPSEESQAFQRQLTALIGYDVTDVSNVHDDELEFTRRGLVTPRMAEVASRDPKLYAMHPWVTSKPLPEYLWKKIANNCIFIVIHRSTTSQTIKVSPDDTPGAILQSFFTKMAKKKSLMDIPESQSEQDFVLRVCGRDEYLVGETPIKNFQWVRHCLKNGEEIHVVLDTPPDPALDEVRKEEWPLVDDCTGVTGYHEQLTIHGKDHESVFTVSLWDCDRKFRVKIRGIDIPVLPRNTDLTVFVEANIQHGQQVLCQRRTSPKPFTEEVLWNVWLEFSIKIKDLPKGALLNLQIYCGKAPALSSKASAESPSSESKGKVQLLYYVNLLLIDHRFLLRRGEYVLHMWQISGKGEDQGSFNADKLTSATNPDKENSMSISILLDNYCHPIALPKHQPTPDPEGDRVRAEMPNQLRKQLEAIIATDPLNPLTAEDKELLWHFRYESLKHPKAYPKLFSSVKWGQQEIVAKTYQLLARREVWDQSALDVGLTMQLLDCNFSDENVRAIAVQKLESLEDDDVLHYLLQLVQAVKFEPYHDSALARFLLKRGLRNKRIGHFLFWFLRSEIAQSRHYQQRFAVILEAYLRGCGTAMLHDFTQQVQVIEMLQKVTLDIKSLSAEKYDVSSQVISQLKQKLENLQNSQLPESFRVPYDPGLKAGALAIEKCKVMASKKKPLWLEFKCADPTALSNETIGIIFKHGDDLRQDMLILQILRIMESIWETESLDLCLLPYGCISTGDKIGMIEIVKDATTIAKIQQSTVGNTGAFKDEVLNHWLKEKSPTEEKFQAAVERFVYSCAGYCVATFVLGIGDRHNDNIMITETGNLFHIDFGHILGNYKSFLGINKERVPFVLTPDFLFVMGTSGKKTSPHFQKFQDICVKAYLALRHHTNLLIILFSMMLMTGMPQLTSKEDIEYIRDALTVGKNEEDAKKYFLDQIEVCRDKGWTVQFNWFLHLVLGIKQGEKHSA

Target: Phosphatidylinositol 4,5-bisphosphate 3-kinase catalytic subunit gamma isoform (Homo sapiens, UniProt P48736)

- Kd: 3.7 nM
SMILES: CC(C)n1nc(-c2ccc3oc(N)nc3c2)c2c(N)ncnc21 [SAPANISERTIB]
